Consider four substances from patent publication US20110171160A1, “POLYMER CONJUGATES OF KISS1 PEPTIDES” (Nektar Therapeutics, priority 2008, published 2011).

Sequences of proteins named here, by UniProt entry; tags and fusion partners are left off.
UniProt Q969F8, whole entry: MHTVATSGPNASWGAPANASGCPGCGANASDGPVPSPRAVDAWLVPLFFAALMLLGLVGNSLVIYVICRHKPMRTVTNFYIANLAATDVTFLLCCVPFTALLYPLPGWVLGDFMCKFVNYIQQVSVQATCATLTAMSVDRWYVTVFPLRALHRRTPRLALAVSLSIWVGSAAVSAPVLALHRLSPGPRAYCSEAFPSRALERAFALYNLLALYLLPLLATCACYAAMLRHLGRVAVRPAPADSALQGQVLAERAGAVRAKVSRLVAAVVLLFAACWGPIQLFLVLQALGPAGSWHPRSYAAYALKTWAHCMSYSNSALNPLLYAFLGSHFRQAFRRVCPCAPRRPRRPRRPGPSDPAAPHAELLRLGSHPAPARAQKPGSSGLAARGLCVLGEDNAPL

Like-named read-outs stand apart in the source and are kept apart here.

The test has as its target T1, human GPR54 (Homo sapiens, UniProt Q969F8).
T1 construct: host or cells: Chem-1 host cells, with the promiscuous G protein Galpha15 (Gal 5 [sic])
Briefly: FLIPR calcium flux agonist assay on GPR54-expressing Chem-1 cell line. The class given is cell-based. The note with it: for EC50: HEPES buffer pH 7, 37° C., read-out: EC50 (nM) of agonist activation at GPR54; for EC50 (nM) of agonist activation at GPR54: time of release n/a (no release incubation). As for the experimental part:
A FLIPR assay was conducted to screen Kisspeptin and PEG-Kisspeptin peptides for dose-dependent agonist activities on the GP[…]-Protein coupled receptor. […] All compounds were diluted in their storage solvents to produce 250× (of the top dose listed below) master stock solutions. Compounds were then transferred from their master stock solutions into a daughter plate that was used in the assay. Each 250× solution was diluted into assay buffer (1×HBSS with 20 mM HEPES and 2.5 mM Probenecid) to obtain the final top test concentration. Calcium flux agonist assay: Chemicon's cloned human GPR54-expressing cell line is made in the Chem-1 host, which supports high levels of recombinant GPR54 expression on the cell surface and contains high levels of the promiscuous G protein Gal 5 to couple the receptor to the calcium signaling pathway. […] Reference agonist was handled as mentioned above, serving as assay control. Assay was read for 180 seconds using the FLIPR^TETRA. All plates were subjected to appropriate baseline corrections. Once baseline corrections were processed, maximum fluorescence values were exported and data manipulated to calculate percentage activation and Z'. Dose response curves were generated using GraphPad Prism. The curves were fit by utilizing sigmoidal dose response (variable slope) fitting with the bottom parameter fixed at 0 (FIGS.

Usually EC50 stands for the concentration at which the effect is half-maximal. Turning to “SBC-30K-KP10: Kisspeptin-10 mono-PEGylated with N-m-PEG-Benzamide-p-Succinimidyl Carbonate (SBC)-30K (releasable conjugate)”, the “Fold change compared to metastin” value (time of release 0 h) was 23 fold; the “Fold change compared to metastin” value (time of release 0 h, listed as SBC-30K Kisspeptin 10) is on record as “about 23 fold”; the “Fold change compared to metastin” value (time of release 2 h) is recorded as roughly 17 fold. In addition, the 50% effective concentration (EC50) stood at 280 nM (time of release 0 h) and 200 nM (time of release 2 h).
For “Ald10K-KP10: Kisspeptin-10 mono-PEGylated with mPEG-ButyrALD10K by reductive amination (stable conjugate)”, the “EC50 (nM) of agonist activation at GPR54” value is “No activity”.
The same measure, in the same setting: the value for “Ald30K-KP10: Kisspeptin-10 mono-PEGylated with mPEG-butyrALD30K by reductive amination (stable conjugate)” was “No activity”.
Take “CAC-40K-KP10: Kisspeptin-10 mono-PEGylated with mPEG2-CAC-FMOC-NHS-40K (releasable conjugate)”: the “Fold change compared to metastin” value is, setting by setting: (time of release 0 h) 155 fold; (time of release 24 h) 9 fold; (time of release 48 h) 6 fold; (time of release 96 h) 4 fold. For the same substance, the EC50 by setting is: (time of release 0 h, listed as CAC-40K Kisspeptin 10) 1600 nM; (time of release 0 h) 1700 nM; (time of release 24 h) 120 nM; (time of release 48 h) 74 nM; (time of release 96 h) 47 nM.
